Results reported in patent US20180012623A1, “Ionic Liquid, Lubricant, and Magnetic Recording Medium” (Dexerials Corporation, priority 2016, published 2018).

Experiment: Solubility test of ionic liquids in Vertrel XF and n-hexane (visual observation)
Conditions: 25° C., ultrasonic 5 minutes, left 1 day; for Solubility, Fluorine-based solvent: Vertrel XF [CF3(CHF)2CF2CF3], 0.2 parts by mass added to 100 parts by mass; for Solubility, n-Hexane: 0.5 parts by mass added to 100 parts by mass
Description: To a predetermined amount of Vertrel XF or n-hexane, the ionic liquid was added. Ultrasonic waves were applied to the resultant mixture for 5 minutes, followed by leaving the mixture to stand for 1 day. The solubility was visually observed.
After applying ultrasonic waves to the resultant for 5 minutes, the resultant was left to stand for 1 day. Thereafter, the solubility was visually observed and evaluated based on the following evaluation criteria. […] Similarly, after applying ultrasonic waves to the resultant for 5 minutes, the resultant was left to stand for 1 day. Thereafter, the solubility was visually observed and evaluated based on the following evaluation criteria.
Note that, the solubility was visually observed, and it was judged as soluble when it was transparent. Moreover, it was judged as not soluble (insoluble) when it was opaque or insoluble components were observed.
The results are presented in Table 2. • [Evaluation Criteria]
• 0.2% by mass or greater:
Soluble with addition of 0.2 parts by mass • Less than 0.2% by mass:
Insoluble with addition of 0.2 parts by mass
<<n-Hexane>> • 0.5% by mass or greater:
Soluble with addition of 0.5 parts by mass • Less than 0.5% by mass:
Insoluble with addition of 0.5 parts by mass

[1] = listed as Comparative Example 5A

nonafluorobutanesulfonic acid-1-dodecyl-2-undecylimidazolium [Ex. 1A]
Solubility, Fluorine-based solvent: ≥ 0.2% by mass
Solubility, Fluorine-based solvent (listed as Example 1A): ≥ 0.2 % by mass
Solubility, n-Hexane: ≥ 0.5% by mass
Solubility, n-Hexane (listed as Example 1A): ≥ 0.5 % by mass

nonafluorobutanesulfonic acid-1-octadecyl-2-undecylimidazolium [Ex. 3A]
Solubility, Fluorine-based solvent: ≥ 0.2% by mass
Solubility, Fluorine-based solvent (listed as Example 3A): ≥ 0.2 % by mass
Solubility, n-Hexane: ≥ 0.5% by mass
Solubility, n-Hexane (listed as Example 3A): ≥ 0.5 % by mass

nonafluorobutanesulfonic acid-1-octadecylimidazolium [1A, reference compound]
Solubility, Fluorine-based solvent: less than 0.2% by mass
Solubility, n-Hexane: less than 0.5% by mass

pentadecafluorooctanoic acid octadecyl ammonium [5A, reference compound]
Solubility, Fluorine-based solvent: less than 0.2% by mass
Solubility, Fluorine-based solvent [1]: less than 0.2 % by mass
Solubility, n-Hexane: ≥ 0.5% by mass
Solubility, n-Hexane [1]: ≥ 0.5 % by mass
